Test results from US10639284B2, “Immunomodulator compounds” (CHEMOCENTRYX, INC., priority 2016, dated 2020).

The chains behind the UniProt entries cited, without tags or fusion partners. Residues count along the entry.
UniProt Q9NZQ7, 19-239 limits assumed: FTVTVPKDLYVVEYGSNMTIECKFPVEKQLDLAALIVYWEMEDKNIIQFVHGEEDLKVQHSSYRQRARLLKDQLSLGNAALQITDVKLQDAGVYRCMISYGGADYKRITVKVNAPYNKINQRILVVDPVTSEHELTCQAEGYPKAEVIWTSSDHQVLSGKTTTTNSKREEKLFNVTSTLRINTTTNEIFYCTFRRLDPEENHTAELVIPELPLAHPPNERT

Target: human PD-L1 / Human PD-1 (Homo sapiens (Human), UniProt Q9NZQ7)
Assay: Enzyme-Linked Immunosorbent Assay (ELISA), PD-1/PD-L1 binding
Conditions: read-out: ELISA IC50; Table 3; plate-coated human PD-L1, biotinylated human PD-1

COc1cccc(-c2cccc3c2CC[C@@H]3Oc2cc(OCc3cc(C#N)cc(C#N)c3)c(CN[C@@H](CO)C(=O)O)cc2Cl)c1F
IC50: < 0.1 µM
